According to the NIST ThermoML archive (doi:10.1016/j.jct.2006.09.015):
Numbers after ± are expanded uncertainties.

Key:
[1] = relative permittivity at various frequencies (dimensionless); xn = mol fraction of the nth substance listed; details: 101.3 kPa, Liquid, Frequency=3 MHz, Bridge type OH-301 made in Radelcis, Hungary
[2] = relative permittivity at various frequencies (dimensionless); details: 101.3 kPa, Liquid, Frequency=3 MHz, Bridge type OH-301 made in Radelcis, Hungary

OCCOCCOCCOCCO [tetraethylene glycol] + COCCO
relative permittivity, [1]
Details	293.15 K	298.15 K	303.15 K
x2 = 0	20.44 ± 0.04	19.91 ± 0.04	19.35 ± 0.04
x2 = 0.0559	20.56 ± 0.04	19.99 ± 0.04	19.43 ± 0.04
x2 = 0.1009	20.66 ± 0.04	20.09 ± 0.04	19.52 ± 0.04
x2 = 0.2001	20.92 ± 0.04	20.34 ± 0.04	19.73 ± 0.04
x2 = 0.3	21.15 ± 0.04	20.58 ± 0.04	19.92 ± 0.04
x2 = 0.4	21.38 ± 0.04	20.78 ± 0.04	20.15 ± 0.04
x2 = 0.5004	21.63 ± 0.04	20.97 ± 0.04	20.4 ± 0.04
x2 = 0.5973	21.86 ± 0.04	21.1 ± 0.04	20.56 ± 0.04
x2 = 0.7	22 ± 0.04	21.12 ± 0.04	20.49 ± 0.04
x2 = 0.7999	21.63 ± 0.04	20.71 ± 0.04	20.02 ± 0.04
x2 = 0.9001	20.44 ± 0.04	19.57 ± 0.04	18.81 ± 0.04
x2 = 0.95	19.17 ± 0.04	18.49 ± 0.04	17.76 ± 0.04

OCCOCCOCCOCCO [tetraethylene glycol]
[2]
Details	relative permittivity
293.15 K	20.44 ± 0.04
298.15 K	19.91 ± 0.04
303.15 K	19.35 ± 0.04
